Earlier results on 3 substances are cited in patent publication US9969776B2, “Drug conjugates for delivering compounds to senescent cells” (Unity Biotechnology, Inc., priority 2007, dated 2018).

The conditions of data set [1]: ×5 days; cited from earlier work.
The conditions of data set [2]: in man; cited from earlier work.

Like-named read-outs stand apart in the source and are kept apart here.

Take 5-FU: the MTD in data set [1] was 500 mg/m^2/day. Consider Cis-Pt, for which the MTD in data set [2] was 100 mg/m^2.

Turning to carbo-Pt, in data set [2], the MTD is recorded as 360 mg/m^2.
